Experimental data published in ChEMBL document CHEMBL5523770 (J Med Chem, 2024).

Protein sequences, listed by entry. Tags and fused reporters are not part of them. Lines headed by an entry give the natural chain unless they say otherwise; changes in a name come on top.
UniProt Q92570: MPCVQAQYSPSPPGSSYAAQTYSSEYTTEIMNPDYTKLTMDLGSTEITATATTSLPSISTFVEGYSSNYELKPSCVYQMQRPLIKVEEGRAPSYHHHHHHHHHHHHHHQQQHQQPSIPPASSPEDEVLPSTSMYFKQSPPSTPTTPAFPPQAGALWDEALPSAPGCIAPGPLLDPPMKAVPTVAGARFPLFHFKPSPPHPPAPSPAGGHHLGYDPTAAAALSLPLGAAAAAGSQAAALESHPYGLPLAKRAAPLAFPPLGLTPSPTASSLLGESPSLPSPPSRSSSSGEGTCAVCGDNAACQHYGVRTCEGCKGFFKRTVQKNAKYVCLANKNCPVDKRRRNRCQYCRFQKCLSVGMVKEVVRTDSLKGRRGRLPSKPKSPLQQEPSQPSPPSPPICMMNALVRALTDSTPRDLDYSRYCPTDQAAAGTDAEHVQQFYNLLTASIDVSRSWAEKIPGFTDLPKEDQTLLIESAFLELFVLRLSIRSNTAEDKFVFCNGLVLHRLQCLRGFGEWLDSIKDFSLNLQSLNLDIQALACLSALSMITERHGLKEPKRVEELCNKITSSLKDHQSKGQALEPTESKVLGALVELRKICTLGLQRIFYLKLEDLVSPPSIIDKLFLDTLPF

Target: Nuclear receptor subfamily 4 group A member 3 (Homo sapiens, UniProt Q92570)
Assay: Inverse agonist activity at human NOR-1 (393 to 626 residues) transfected in HEK293T cells incubated for 16 hrs by firefly/renilla based Dual-Glo luciferase assay
Assay type: cell-based

- IC50: 10 µM
SMILES: O=C(O)Cc1nc(-c2ccccc2)c(-c2ccccc2)o1
